Reference: patent US7132296B2, “Method for assaying the antioxidant capacity of a sample” (Medical Products Manufacturing, LLC, priority 2002, dated 2006)

Test: ORAC assay for lipophilic antioxidants (ORAClipo) with randomly methylated β-cyclodextrin as solubility enhancer
Type: biochemical
Settings: 7% cyclodextrin in 50% acetone-water
From the text: Chemicals and Apparatus. Cyclodextrin derivatives were supplied from Cyclodextrin Technologies Development, Inc. (Gainesville, Fla.). Fluorescein (FL) and Trolox were purchased from Aldrich (Milwaukee, Wis.). 2,2′-azobis (2-amidino-propane) dihydrochloride (AAPH) was obtained from Wako Chemicals USA (Richmond, Va.). γ-Oryzanol was purchased from TCI America (Portland, Oreg.); nutriene (tocotrienols) was obtained from Eastman Chemicals Company (Kingsport, Tenn.). All other standards were commercially available form Sigma or Aldrich. Analyses were performed on a COBAS FARA II analyzer (Roche Diagnostic System Inc., Branchburg, N.J. using an excitation wavelength of 493 nm and an emission filter of 515 nm or alternatively, the sample may be analyzed with a FL600 microplate fluorescence reader (Bio-Tek Instruments, Inc., Winooski, Vt.) with fluorescence filters for an excitation wavelength of 485±20 nm and a emission wavelength of 530±25 nm. The plate reader is ideally controlled by software, such as KC4 3.0 (reversion 29). Sample dilution is accomplished by a Precision 2000 automatic pipetting system managed by software, such as precision power software (version 1.0), Bio-Tek Instruments, Inc., Winooski, Vt. […]
Sample Preparation. […] The sample solution was ready for analysis after further dilution with 7% cyclodextrin solution. […]

## Cc1c(C)c2c(c(C)c1O)CC[C@@](C)(CCC[C@H](C)CCC[C@H](C)CCCC(C)C)O2 [α-tocopherol]
  ORAC value per gram: 1162 μmolTE/g
